One compound from patent US20090209633A1, “Treatment of Pain With Resiniferatoxin and Related Analogs” (priority 2006, published 2009) can be followed below.

The chains behind the UniProt entries cited, without tags or fusion partners.
UniProt O35433, whole entry: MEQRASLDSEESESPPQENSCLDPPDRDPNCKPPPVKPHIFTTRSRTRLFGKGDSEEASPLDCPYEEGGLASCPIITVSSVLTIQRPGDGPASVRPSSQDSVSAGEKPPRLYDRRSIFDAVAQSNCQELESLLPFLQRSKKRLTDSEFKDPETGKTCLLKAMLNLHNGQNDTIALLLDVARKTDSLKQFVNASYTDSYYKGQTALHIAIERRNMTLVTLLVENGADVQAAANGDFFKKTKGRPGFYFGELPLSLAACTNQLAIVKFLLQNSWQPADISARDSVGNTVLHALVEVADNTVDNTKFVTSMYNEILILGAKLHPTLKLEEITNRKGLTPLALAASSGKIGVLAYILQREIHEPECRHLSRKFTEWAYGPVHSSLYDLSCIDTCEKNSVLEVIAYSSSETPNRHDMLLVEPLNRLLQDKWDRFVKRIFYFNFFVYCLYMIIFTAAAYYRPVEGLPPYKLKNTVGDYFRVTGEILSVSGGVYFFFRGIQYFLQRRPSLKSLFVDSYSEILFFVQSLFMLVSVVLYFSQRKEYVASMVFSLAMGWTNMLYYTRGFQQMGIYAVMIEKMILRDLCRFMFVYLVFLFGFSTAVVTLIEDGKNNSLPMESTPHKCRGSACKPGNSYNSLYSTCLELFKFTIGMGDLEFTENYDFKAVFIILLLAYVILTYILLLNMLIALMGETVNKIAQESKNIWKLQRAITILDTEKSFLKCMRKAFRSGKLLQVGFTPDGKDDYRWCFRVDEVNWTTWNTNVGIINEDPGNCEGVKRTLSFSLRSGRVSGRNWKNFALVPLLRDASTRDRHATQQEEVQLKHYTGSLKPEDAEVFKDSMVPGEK

For the assay, the target named is T1, native TRPV1 (Rattus norvegicus, UniProt O35433).
T1 construct: RTX-induced membrane currents on native TRPV1 in embryonic DRG neurons grown in culture; endogenous in cells; host or cells: primary rat E18 DRG neurons
As to the kind of experiment: Single-channel currents in cell-attached patches from DRG neurons. The class given is cell-based. The note with it: between 0 and +100 mV. The source says: For single-channel recording in cell-attached patches from DRG neurons, the bath solution contained (mM): potassium gluconate 140, KCl 2.5, MgCl2 1, Hepes 5 and EGTA 1.5; pH adjusted to 7.35 with NaOH. The patch pipettes were made from glass capillaries (Drummond, Microcaps), coated with Sylgard (Dow Corning, Midland, Mich., USA). For cell-attached patches, the patch pipettes were filled with a solution that contained (mM): sodium gluconate 140, NaCl 10, MgCl2 1, Hepes 5 and EGTA 1.5; pH adjusted to 7.35 with NaOH. […] The currents were recorded using a WPC 100 (Warner Instruments) or Axopatch 2B (Axon Instruments, Union City, Calif., USA) patch-clamp amplifier. […]
Single-channel analysis. […] For current-voltage relationships, the amplitudes were determined by fitting a Gaussian curve to an all-point histogram. Po was determined using unedited segments of data, which were typically 1-5 min long. For multiple channel patches, the mean Po was measured as nPo, where n is the number of channels in the patch. Chord conductance was measured at +60 or −60 mV. […]
Single-channel conductance. To further evaluate the properties of TRPV1 activation by RTX, we recorded single-channel currents from cell-attached and excised patches from DRG neurons and oocytes heterologously expressing TRPV1. […]

On to `COc1cc(CNC(=O)CCCC/C=C/C(C)C)ccc1O` [capsaicin], for which the “slope conductance, outward limb / positive potentials” value came to 107 pS.
